This is a selection: effects in other tests are not listed, and their absence says nothing.
Test system: guanylate cyclase, GC-C (T84 cells)
Assay: [cGMP]i in T84 cells
Conditions: positive control, 1 μM NaNP, compared with linaclotide

## Sodium nitroprusside
  [cGMP]i level relative to linaclotide: much higher levels of [cGMP]i

From article PMC3403872, “Contrasting effects of linaclotide and lubiprostone on restitution of epithelial cell barrier properties and cellular homeostasis after exposure to cell stressors” (BMC Pharmacology, 2012)
